Experimental data reported in PubChem BioAssay AID449763 (Sanford-Burnham Center for Chemical Genomics, 2010).
The list shows a part of the results, in another mix than the full data. Some structures show a salt or complex split into parts, the way the source records it. The source made the active and inactive calls.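 Rule for the calls: active = at 10 µM dose, activation of 40% or more, normalized to positive control; inactive = the rest.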

Test: PERK-eIF2a-CHOP pathway stimulators – cell-based, CHO-CHOP luciferase reporter, luminescence, uHTS, primary screen (AID 449763);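 note: 100% = tunicamycin at 10 µg/mL and 0% = DMSO alone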
Settings: UPR activation, at 10 µM, hits give high values, percent of tunicamycin response over DMSO baseline
Method in brief: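 Test system: CHO-CHOP cells, stable luciferase reporter of PERK-eIF2a-CHOP signalling | Quantity: 500 CHO-CHOP cells per well | Buffer or medium: F12 plus 10% serum | Compound dosing: 10 µM single point, 0.5% DMSO | Schedule: 6 h compound treatment, 37 °C | Signal: Luciferase luminescence | Control set: Tunicamycin high control, DMSO low control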

SMILES	activation
CCOC(=O)c1ccc(NP(C)(=O)Oc2ccc(OC)cc2)cc1 (configuration not stated)	inactive: 0.831%
O=[N+]([O-])c1cc([N+](=O)[O-])c(O)c([N+](=O)[O-])c1.c1ccc(Oc2ccncc2)cc1	inactive: -2.28%
Cc1cc(C)cc(OP(C)(=O)Nc2ccc(SC(F)(F)F)cc2)c1 (configuration not stated)	inactive: 0.635%
CP(=O)(NC(=O)Nc1ccccc1)Oc1ccccc1 (configuration not stated)	inactive: 0.16%
CCc1ccc(OP(C)(=O)N2CCN(c3ccc([N+](=O)[O-])cc3)CC2)cc1 (configuration not stated)	inactive: -0.678%
CP(=O)(Oc1ccccc1)OC(c1ccccc1)C(F)(F)F (configuration not stated)	inactive: -2.54%
Cc1cccc(C)c1OP(C)(=O)Nc1ccc(SC(F)(F)F)cc1 (configuration not stated)	inactive: -4.19%
CP(=O)(Nc1ccc(SC(F)(F)F)cc1)Oc1ccc(Cl)cc1 (configuration not stated)	inactive: 0.449%
COc1ccccc1OP(C)(=O)Nc1ccccc1 (configuration not stated)	inactive: 11.5%
CP(=O)(Nc1ccccc1Br)Oc1ccccc1 (configuration not stated)	inactive: 0.514%
CP(=S)(Nn1cnnc1)Oc1ccccc1 (configuration not stated)	inactive: -0.994%
COc1ccc(OP(C)(=O)Nc2cccc(F)c2)cc1 (configuration not stated)	inactive: -0.76%
COc1ccccc1OP(C)(=O)Nc1cc(Cl)ccc1C (configuration not stated)	inactive: 4.94%
Cc1cc(C)cc(OP(C)(N)=O)c1 (configuration not stated)	inactive: 1.58%
CCOC(=O)c1ccc(NP(C)(=O)Oc2ccccc2)cc1 (configuration not stated)	inactive: -0.516%
Cc1ccc(NP(C)(=O)Oc2ccccc2)c(C)c1 (configuration not stated)	inactive: -0.553%
COc1ccccc1OP(C)(=O)Nc1ccc(C)cc1 (configuration not stated)	inactive: 1.26%
Cc1cccc(C)c1OP(C)(N)=O (configuration not stated)	inactive: -0.674%
CC(C)(C)c1ccc(OP(C)(=O)Nc2ccc(SC(F)(F)F)cc2)cc1 (configuration not stated)	inactive: 1.21%
O=[N+]([O-])c1cc([N+](=O)[O-])c(Nc2cccnc2)c([N+](=O)[O-])c1	inactive: -0.0308%
CCN(CC)CCCOC(=O)C(O)(c1ccccc1)c1ccccc1	inactive: -0.419%
CCc1ccc(OP(C)(=O)O)cc1	inactive: -0.861%
COc1ccccc1OP(C)(=O)Nc1ccc(C)cc1C (configuration not stated)	inactive: -1.05%

SMILES	activation
CP(=O)(Nc1ccccn1)Oc1ccccc1 (configuration not stated)	inactive: 0.346%
Cc1c(NP(C)(=O)Oc2ccc(C(C)C)cc2)c(=O)n(-c2ccccc2)n1C (configuration not stated)	inactive: -1.09%
O=[N+]([O-])c1cc([N+](=O)[O-])c(Nc2ccccn2)c([N+](=O)[O-])c1	inactive: 0.733%
CN(C)CCOC(=O)C(O)(c1ccccc1)C1CCCC1 (configuration not stated)	inactive: -0.0555%
COc1ccc(OP(C)(=O)Nc2ccccn2)cc1 (configuration not stated)	inactive: -1.75%
COc1ccccc1OP(C)(=O)Nc1ccc(Br)cc1 (configuration not stated)	inactive: -1.32%
CP(=O)(Nc1ccc(Cl)cc1Cl)Oc1ccccc1 (configuration not stated)	inactive: -1.53%
CP(=O)(OCCOc1ccccc1)OCCOc1ccccc1	inactive: -1.25%
Cc1nc2ccc3ccccc3c2o1.O=[N+]([O-])c1cc([N+](=O)[O-])c(O)c([N+](=O)[O-])c1	inactive: 3.56%
COc1ccc(OP(C)(=O)Nc2ccccc2Br)cc1 (configuration not stated)	inactive: 0.867%
COc1ccccc1OP(C)(=O)Nc1ccc(C)c(C)c1 (configuration not stated)	inactive: -2.67%
Cc1cc(C)cc(OP(C)(=O)Nc2cccc(C(F)(F)F)c2)c1 (configuration not stated)	inactive: -0.649%
CP(=O)(OC12CC3CC(CC(C3)C1)C2)OC12CC3CC(CC(C3)C1)C2	inactive: 1.63%
CCOC(=O)c1ccc(NP(C)(=O)Oc2ccc(Cl)cc2)cc1 (configuration not stated)	inactive: 1.63%
Nc1ccc2c(ccc3cccnc32)n1.O=[N+]([O-])c1cc([N+](=O)[O-])c(O)c([N+](=O)[O-])c1	inactive: -0.59%
CN(C)C(=O)c1c([N+](=O)[O-])cc([N+](=O)[O-])cc1[N+](=O)[O-]	inactive: 5.27%
CP(=O)(Nc1ccc(Cl)cc1)Oc1ccc(F)cc1 (configuration not stated)	inactive: 1.02%
COc1ccccc1OP(C)(=O)Nc1ccccc1Br (configuration not stated)	inactive: -0.06%
CC(C)(C)c1ccc(OP(C)(=O)O)cc1	inactive: 1.95%
CCc1ccc(OP(C)(=O)Nc2cccnc2)cc1 (configuration not stated)	inactive: -1.44%
CP(=O)(Oc1ccccc1)N1CCOC1=O (configuration not stated)	inactive: 0.0182%
O=C(OCCCN1CCCC1)C(O)(c1ccccc1)C1CCCCC1 (configuration not stated)	inactive: 1.73%
COc1ccccc1OP(C)(=O)Nc1c(C)n(C)n(-c2ccccc2)c1=O (configuration not stated)	inactive: -1.99%

SMILES	activation
COc1ccc(OP(C)(=O)Nc2ccc(Br)cc2)cc1 (configuration not stated)	inactive: 0.265%
CCN(CC)CC(O)COC(=O)C(O)(c1ccccc1)C1CCCCC1 (configuration not stated)	inactive: -0.145%
Cc1ccccc1NP(C)(=O)Nc1ccccc1C	inactive: -1.72%
CP(=O)(Nc1ccc2c(c1)OCCO2)Oc1ccccc1 (configuration not stated)	inactive: -2.01%
CCOP(C)(=S)SCC(=O)NC(C)(CC)C(=O)O (configuration not stated)	inactive: 2.75%
CP(=O)(Nc1ccc(SC(F)(F)F)cc1)Oc1ccc(F)cc1 (configuration not stated)	inactive: -0.973%
O=[N+]([O-])c1cc([N+](=O)[O-])c(NCC2CCS(=O)(=O)C2)c([N+](=O)[O-])c1 (configuration not stated)	inactive: -3.47%
COc1ccc(NP(C)(=O)Oc2ccccc2OC)cc1 (configuration not stated)	inactive: -1.33%
CN(C)CCOC(=O)C(O)(c1ccccc1)C1CCCCC1 (configuration not stated)	inactive: -1.58%
COc1ccc(OP(C)(=O)Nc2cccc(Br)c2)cc1 (configuration not stated)	inactive: -1.99%
O=[N+]([O-])c1cc([N+](=O)[O-])c(OC2CCCCC2O)c([N+](=O)[O-])c1 (configuration not stated)	inactive: 0.585%
CCCCCOc1ccc(NP(C)(=O)Oc2ccc(Cl)cc2Cl)cc1 (configuration not stated)	inactive: -0.0496%
CP(=O)(Nc1ccccc1)Oc1ccc(F)cc1 (configuration not stated)	inactive: -0.387%
CCN(CC)CCCOC(=O)C(O)(c1ccccc1)C1CCCCC1 (configuration not stated)	inactive: -0.64%
COc1ccc(OP(C)(=O)Nc2ccc(SC(F)(F)F)cc2)cc1 (configuration not stated)	inactive: 0.938%
CCOC(=O)c1ccc(NP(C)(=O)Oc2ccc(F)cc2)cc1 (configuration not stated)	inactive: -0.374%
COc1ccc2c(c1O)-c1c(O)c(OC)cc3c1[C@H](C2)[N+](C)(C)CC3.O=[N+]([O-])c1cc([N+](=O)[O-])c([O-])c([N+](=O)[O-])c1[O-]	inactive: 1.34%
O=C(OCCN1CCN(CCOCc2ccccc2)CC1)C(O)(c1ccccc1)c1ccccc1	inactive: 0.443%
O=C(OC1CN2CCC1CC2)c1ccc([N+](=O)[O-])cc1 (configuration not stated)	inactive: 0.884%
CC(C)c1ccc(OP(C)(=O)Nc2ccc(SC(F)(F)F)cc2)cc1 (configuration not stated)	inactive: -2.2%
CP(=O)(Nc1ccccc1F)Oc1ccccc1 (configuration not stated)	inactive: -0.937%
